# Antibody variant affinities, Ab-14 heavy chain, assay B

Binding partner: SARS-CoV-2 spike HR2 peptide, sequence PDVDLGDISGINAS.

Parent scFv Ab-14: VH joined to VL by a (GGGGS)3 linker. Changes lie in the heavy chain CDRs alone.
VH: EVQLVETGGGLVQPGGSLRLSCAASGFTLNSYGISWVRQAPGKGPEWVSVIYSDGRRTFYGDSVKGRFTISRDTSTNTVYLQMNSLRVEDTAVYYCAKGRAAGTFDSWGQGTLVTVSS
VL: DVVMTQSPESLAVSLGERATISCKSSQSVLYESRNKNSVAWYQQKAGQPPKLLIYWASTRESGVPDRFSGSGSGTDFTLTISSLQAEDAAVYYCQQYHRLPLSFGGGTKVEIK

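This is the validation round: designs drawn from the data on random variants, tested in the same kind of assay. Their group label is 14H_GP_HC (GP: Gaussian process model; HC: hill climbing; a sequence that several methods proposed may carry one label only). The scFvs were displayed on barcoded MATa yeast, the peptide on MATalpha yeast. Binding brings cells together so that they mate, and sequencing counts the barcode pairs among the diploids. A regression on co-assayed BCL2-family reference pairs converts the normalised counts of each replicate to an apparent Kd. Mating was done six times.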

Substitutions are numbered in sequence along the VH above, starting at 1 (not Kabat). Scale: log10 of Kd in nM, estimated from mating counts; low values are strong binders. "n.d." means that the variant was in the library but no mating with the target was seen in that replicate; the authors take this as a sign of poor binding, and no number exists. As a blank, each scFv also met three strains without target: over all heavy chain designs, 1% of these pairings were detected, typically at 2.08 and seldom below 0.84. The control count says in how many pairings with the empty strains this scFv gave a signal, with their mean in brackets. Values of this round are not directly comparable with the first-round values of the same sequences. In the paper, a design with two or fewer of six values counts as a poor binder. The parent sequence was in this pool as ten entries: three were never detected, three once, and four in most replicates, with averages from 0.34 to 2.37.

changes,"replicates, log10 nM",empty controls
S31D F59M A101Y,n.d. n.d. n.d. n.d. -0.17 n.d.,0/18
T28Q F59E,n.d. n.d. n.d. n.d. n.d. n.d.,0/18
T28W S31E G61Y A101Q,n.d. n.d. n.d. n.d. n.d. n.d.,0/18
G61D R100Q A101T S107R,n.d. n.d. n.d. n.d. n.d. n.d.,0/18
S31D G61K S107T,0.62 0.44 0.10 0.69 0.43 0.27,0/18
S31E F59M G61S A102P,n.d. 1.46 0.86 1.12 n.d. n.d.,1/18 (0.53)
T28E S31D F59I G61I,n.d. n.d. n.d. n.d. n.d. n.d.,0/18
T28Q S31E D106R,n.d. n.d. n.d. 2.36 n.d. n.d.,0/18
T28D G61L G103V,n.d. n.d. n.d. n.d. n.d. n.d.,0/18
T28D G61T R100M A101F,1.17 0.94 1.28 0.47 1.02 0.45,0/18
T28S S31E S53A R100Y,-0.20 -0.28 -0.14 -0.32 -0.50 -0.03,1/18 (2.43)
T28Q S31E D106C S107V,n.d. n.d. n.d. n.d. n.d. n.d.,0/18
G61S G103V S107K,n.d. n.d. n.d. n.d. n.d. n.d.,0/18
S31D D106V S107D,1.45 n.d. n.d. 4.44 1.81 n.d.,0/18
S31E A101Q D106W,n.d. n.d. n.d. n.d. n.d. n.d.,0/18
T28S S31E Y32F G61T A101F,0.27 0.12 -0.17 -0.33 0.04 0.33,0/18
N30D R100N,1.32 1.12 0.59 0.76 0.94 0.49,0/18
T28W S31D G61A S107L,2.03 1.29 0.41 0.54 0.71 0.54,0/18
S31E F59M G61T A101N,0.28 0.21 -0.41 0.64 0.16 0.43,1/18 (1.65)
S31Q G61S G103V S107T,n.d. n.d. n.d. n.d. n.d. n.d.,0/18
S31E R100K D106I,n.d. n.d. n.d. n.d. n.d. n.d.,0/18
T28D S31E A101F,0.11 0.56 0.87 1.15 1.25 0.83,1/18 (1.55)
G26N N30E S53A D106M,1.97 n.d. n.d. 1.90 3.50 n.d.,0/18
S31E T58A G61T A101T,-0.31 -0.19 -0.55 -0.36 0.13 0.27,1/18 (1.55)
T28Q S31N,1.45 2.02 2.18 1.78 2.44 2.12,0/18
T28H G61I A101H,n.d. n.d. n.d. n.d. n.d. n.d.,0/18
S53A S63Q D106I,n.d. n.d. n.d. n.d. n.d. n.d.,0/18
S31E G61Q S63D S107Q,n.d. 0.82 0.07 n.d. -0.28 -0.38,0/18
G26F S31E G61T A101F,n.d. n.d. n.d. n.d. n.d. 1.56,0/18
T28H S31D G61A,-0.23 -1.48 -1.23 -1.22 -1.25 -1.63,0/18
N30E G61Q R100Q A101G,n.d. n.d. n.d. n.d. n.d. n.d.,0/18
N30E R56K G61S A102G,1.36 2.38 2.93 0.95 2.53 2.21,0/18
S53A S63Q D106N,0.68 n.d. n.d. n.d. 2.15 n.d.,0/18
T28H G61S R100H,1.61 2.07 1.47 1.91 1.33 1.57,0/18
T28D G103W S107A,n.d. n.d. n.d. 0.61 n.d. n.d.,0/18
T28W S31D S53A R100T,-0.28 0.36 0.31 -0.19 -0.34 -0.06,0/18
S31E G61T S63R R100E S107K,0.90 1.52 1.25 0.50 0.52 0.84,0/18

Repeated from above, the 4 best binders with a signal in all replicates:

changes,"replicates, log10 nM",empty controls
T28H S31D G61A,-0.23 -1.48 -1.23 -1.22 -1.25 -1.63,0/18
T28S S31E S53A R100Y,-0.20 -0.28 -0.14 -0.32 -0.50 -0.03,1/18 (2.43)
S31E T58A G61T A101T,-0.31 -0.19 -0.55 -0.36 0.13 0.27,1/18 (1.55)
T28W S31D S53A R100T,-0.28 0.36 0.31 -0.19 -0.34 -0.06,0/18

Source: Li et al. 2023 (doi:10.1038/s41467-023-39022-2), MIT Lincoln Laboratory and A-Alpha Bio; data file from the FLAb repository.